Sequences of proteins named here, by UniProt entry; tags and fusion partners are left off.
UniProt O00408, whole entry: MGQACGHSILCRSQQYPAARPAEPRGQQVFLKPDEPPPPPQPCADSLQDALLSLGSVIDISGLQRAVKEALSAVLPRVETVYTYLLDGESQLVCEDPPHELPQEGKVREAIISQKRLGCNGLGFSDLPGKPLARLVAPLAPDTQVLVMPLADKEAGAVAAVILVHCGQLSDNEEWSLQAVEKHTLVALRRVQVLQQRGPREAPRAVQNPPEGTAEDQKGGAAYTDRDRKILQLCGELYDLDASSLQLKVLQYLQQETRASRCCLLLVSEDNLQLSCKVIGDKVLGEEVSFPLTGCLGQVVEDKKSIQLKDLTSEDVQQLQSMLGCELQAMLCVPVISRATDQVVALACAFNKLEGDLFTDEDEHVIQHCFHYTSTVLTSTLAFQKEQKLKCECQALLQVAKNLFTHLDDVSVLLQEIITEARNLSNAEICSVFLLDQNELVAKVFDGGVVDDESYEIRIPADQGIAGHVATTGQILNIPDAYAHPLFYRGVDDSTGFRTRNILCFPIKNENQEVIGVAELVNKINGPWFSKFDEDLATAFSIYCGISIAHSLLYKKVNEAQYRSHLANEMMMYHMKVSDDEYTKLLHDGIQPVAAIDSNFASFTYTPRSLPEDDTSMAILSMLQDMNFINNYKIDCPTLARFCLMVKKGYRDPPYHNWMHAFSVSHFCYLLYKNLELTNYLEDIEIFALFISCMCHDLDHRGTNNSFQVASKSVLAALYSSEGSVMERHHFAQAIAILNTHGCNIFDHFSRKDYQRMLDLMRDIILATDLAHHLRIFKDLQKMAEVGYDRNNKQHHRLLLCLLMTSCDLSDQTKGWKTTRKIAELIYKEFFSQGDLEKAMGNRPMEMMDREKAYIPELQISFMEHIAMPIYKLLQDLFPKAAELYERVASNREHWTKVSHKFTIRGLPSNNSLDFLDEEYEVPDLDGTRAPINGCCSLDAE

According to ChEMBL document CHEMBL1143499, “Fused pyrimidine based inhibitors of phosphodiesterase 7 (PDE7): synthesis and initial structure-activity relationships” (Bioorg Med Chem Lett, 2005):

Key:
[1] = molecular target: cGMP-dependent 3',5'-cyclic phosphodiesterase (Homo sapiens, UniProt O00408); assay: Inhibition of Phosphodiesterase 2
[2] = Relative binding to Phosphodiesterase 1 and Phosphodiesterase 7, ratio of IC50
[3] = Relative binding to Phosphodiesterase 2 and Phosphodiesterase 7, ratio of IC50
[4] = Relative binding to Phosphodiesterase 5 and Phosphodiesterase 7, ratio of IC50
[5] = Relative binding to Phosphodiesterase 3 and Phosphodiesterase 7, ratio of IC50
[6] = Relative binding to Phosphodiesterase 4 and Phosphodiesterase 7, ratio of IC50

| SMILES | IC50 [1] [µM] | Ratio [2] | Ratio [3] | Ratio [4] | Ratio [5] | Ratio [6] |
| --- | --- | --- | --- | --- | --- | --- |
| CCCc1nn(C)c2c(=O)[nH]c(-c3cc(S(=O)(=O)N4CCN(C)CC4)ccc3OCC)nc12 | > 10 | – | – | – | – | – |
| CCOC(=O)c1sc(Nc2nc(NCc3ccc(S(N)(=O)=O)cc3)c3c(ncn3CC)n2)nc1C | – | 86 | 86 | 1 | 270 | 50 |
